The text below walks through data of BindingDB's records for doi:10.1016/j.bmcl.2013.03.113 (Vanderbilt University Medical Center, 2013).

For the test, the target named is T1, Bone morphogenetic protein 4 (Mus musculus, UniProt P21275).
T1 sequence (P21275 whole entry): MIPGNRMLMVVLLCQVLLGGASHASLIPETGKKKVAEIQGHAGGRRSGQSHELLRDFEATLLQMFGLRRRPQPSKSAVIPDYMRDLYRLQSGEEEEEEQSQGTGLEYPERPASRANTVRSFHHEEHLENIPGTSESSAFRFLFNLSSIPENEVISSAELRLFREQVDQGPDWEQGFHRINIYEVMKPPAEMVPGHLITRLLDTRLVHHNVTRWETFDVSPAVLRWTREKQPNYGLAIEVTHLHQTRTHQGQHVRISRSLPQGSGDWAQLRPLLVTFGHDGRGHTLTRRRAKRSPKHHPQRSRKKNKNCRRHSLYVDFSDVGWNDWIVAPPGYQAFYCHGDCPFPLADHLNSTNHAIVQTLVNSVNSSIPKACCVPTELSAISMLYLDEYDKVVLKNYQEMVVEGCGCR
Nature of the test: Inhibition of BMP4 in mouse C2C12BRA cells after 14 hrs by luciferase reporter gene assay. Background: A reporter such as luciferase makes a cellular process visible.

As for `c1ccc2c(-c3cnn4cc(-c5ccc(N6CCNCC6)cc5)cnc34)csc2c1`, half-maximal inhibition (IC50) required 2640 nM. Regarding `Clc1cc(-c2cnn3cc(-c4ccc(N5CCNCC5)cc4)cnc23)ccn1`, it took 246 nM to reach half-maximal inhibition (IC50).

In the case of `COc1ccc(-c2cnc3c(-c4cncc5ccccc45)cnn3c2)cc1`, the IC50 (in general, the concentration needed to halve the response being measured) was found to be 6730 nM.
